The results in this text go back to ChEMBL document CHEMBL2331364, “A synthetic dolastatin 10 analogue suppresses microtubule dynamics, inhibits cell proliferation, and induces apoptotic cell death” (J Med Chem, 2013).

In test [1] the test system is MCF7. In words: Induction of mitotic microtubule depolymerization in human MCF7 cells assessed as ratio of polymeric to soluble tubulin at 30 nM after 48 hrs by Western blot analysis. The class given is cell-based. Background: Immunoblotting shows a protein as a band on a membrane.
Test [2] deals with MCF7. In words: Induction of mitotic microtubule depolymerization in human MCF7 cells assessed as ratio of polymeric to soluble tubulin at 60 nM after 48 hrs by Western blot analysis. The class given is cell-based.

Turning to `CC[C@H](C)[C@@H]([C@@H](CC(=O)NC[C@H]1O[C@H](C(=O)NCCc2ccccc2)[C@@H](OC)[C@@H]1OC)OC)N(C)C(=O)[C@@H](NC(=O)[C@@H](NC)C(C)C)C(C)C`, the Ratio in test [1] is 0.8; in test [2] it was 0.6.
